This note sets out measurements from ChEMBL document CHEMBL4400508, “Targeted Endocrine Therapy: Design, Synthesis, and Proof-of-Principle of 17β-Hydroxysteroid Dehydrogenase Type 2 Inhibitors in Bone Fracture Healing” (J Med Chem, 2019).

Test [1] concerns the target T1, 17-beta-hydroxysteroid dehydrogenase type 1 (Homo sapiens, UniProt P14061).
T1 sequence (P14061 whole entry): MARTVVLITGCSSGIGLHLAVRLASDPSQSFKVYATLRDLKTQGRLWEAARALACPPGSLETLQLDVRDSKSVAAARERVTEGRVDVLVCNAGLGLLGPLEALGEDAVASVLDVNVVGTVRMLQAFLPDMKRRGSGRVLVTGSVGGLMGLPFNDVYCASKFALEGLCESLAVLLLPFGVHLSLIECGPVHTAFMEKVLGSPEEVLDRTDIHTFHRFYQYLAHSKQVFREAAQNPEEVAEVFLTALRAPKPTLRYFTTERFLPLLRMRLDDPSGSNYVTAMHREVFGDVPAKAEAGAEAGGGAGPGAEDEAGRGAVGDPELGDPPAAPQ

The target of test [2] is T2, Estradiol 17-beta-dehydrogenase 2 (Mus musculus, UniProt P51658).
T2 sequence (P51658 whole entry): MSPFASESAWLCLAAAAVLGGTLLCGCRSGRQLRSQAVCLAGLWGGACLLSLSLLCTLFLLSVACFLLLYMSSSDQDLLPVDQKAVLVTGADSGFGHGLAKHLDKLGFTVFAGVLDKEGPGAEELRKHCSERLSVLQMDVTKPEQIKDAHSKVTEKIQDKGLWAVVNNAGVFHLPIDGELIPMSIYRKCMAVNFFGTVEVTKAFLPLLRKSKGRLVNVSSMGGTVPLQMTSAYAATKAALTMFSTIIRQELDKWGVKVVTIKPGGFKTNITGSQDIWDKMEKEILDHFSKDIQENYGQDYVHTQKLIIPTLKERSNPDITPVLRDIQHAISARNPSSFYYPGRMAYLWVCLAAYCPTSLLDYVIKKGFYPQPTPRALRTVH
The test can be described thus: biochemical. Type of test: tissue-based, Liver.

The term IC50 denotes the concentration at which inhibition is half-maximal. Read a low IC50 as greater potency. For the compound `O=C(c1ccc(-c2cccc(NS(=O)(=O)c3ccc(F)cc3)c2)s1)c1cc(F)c(F)c(O)c1F`, half-maximal inhibition in test [1] (IC50) was put at 1.2 nM.
In test [1], `O=C(c1ccc(-c2cccc(NS(=O)(=O)c3ccccc3)c2)s1)c1cccc(O)c1F` returned a 50% inhibitory concentration (IC50) of 7.2 nM.
In turn, `O=C(c1ccc(-c2cccc(NS(=O)(=O)c3ccccc3)c2)s1)c1c(Cl)ccc(O)c1F` came in with an IC50 in test [2] of 8.9 nM.
